{"sequences": {"note": "The chains behind the UniProt entries cited, without tags or fusion partners. Where a name states a change or a piece, a line headed by the entry shows the natural chain unless it says otherwise.", "UniProt P15428": "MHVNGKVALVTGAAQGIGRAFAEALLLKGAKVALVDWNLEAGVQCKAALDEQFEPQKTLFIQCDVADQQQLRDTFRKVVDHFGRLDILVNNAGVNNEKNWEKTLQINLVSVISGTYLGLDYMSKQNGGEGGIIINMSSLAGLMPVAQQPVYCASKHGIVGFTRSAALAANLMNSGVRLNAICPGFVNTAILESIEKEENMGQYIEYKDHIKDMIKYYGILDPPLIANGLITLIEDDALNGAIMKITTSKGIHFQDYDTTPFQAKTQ"}, "source": "PubChem BioAssay AID894", "about": "(National Center for Advancing Translational Sciences (NCATS), 2007)", "note": "The list shows a part of the results, in another mix than the full data. Inconclusive results are not listed. Active and inactive are the calls of the source. Calls come from the whole dose curve; as a rule, active = well fitted inhibition curve with a large enough effect (not every such curve was filed as active); inconclusive = small, poorly fitted or top-dose-only effect, or another doubt; inactive = no such curve, though single readings can be large or run the other way. Potency is the fitted concentration of half-maximal effect."}
{"molecular_target": "15-hydroxyprostaglandin dehydrogenase [NAD(+)] (Homo sapiens) (UniProt P15428)", "experiment": "qHTS Assay for Inhibitors of HPGD (15-Hydroxyprostaglandin Dehydrogenase)", "details": "purified HPGD, NADH fluorescence kinetic, PGE2 substrate"}
{"smiles": "O=C1NC(=O)/C(=C/c2ccccc2Oc2ccc(Cl)cc2)S1", "Potency": "active: 3.55 µM"}
